By UniProt entry, the sequences of proteins in these tests, tags left out.
UniProt P10826, whole entry, species assumed: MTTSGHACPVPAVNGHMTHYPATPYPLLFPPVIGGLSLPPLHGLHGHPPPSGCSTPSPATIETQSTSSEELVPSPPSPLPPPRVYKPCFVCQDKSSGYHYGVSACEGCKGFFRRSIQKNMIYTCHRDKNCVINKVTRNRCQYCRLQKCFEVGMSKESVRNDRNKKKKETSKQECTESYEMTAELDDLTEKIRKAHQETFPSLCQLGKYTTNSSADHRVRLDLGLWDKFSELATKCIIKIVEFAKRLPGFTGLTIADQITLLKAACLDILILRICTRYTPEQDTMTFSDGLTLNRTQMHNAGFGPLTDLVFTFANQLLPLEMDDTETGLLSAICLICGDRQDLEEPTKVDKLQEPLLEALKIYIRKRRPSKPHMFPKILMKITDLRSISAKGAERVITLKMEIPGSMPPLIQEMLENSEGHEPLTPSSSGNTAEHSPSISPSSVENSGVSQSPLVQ
UniProt P13631, whole entry, species assumed: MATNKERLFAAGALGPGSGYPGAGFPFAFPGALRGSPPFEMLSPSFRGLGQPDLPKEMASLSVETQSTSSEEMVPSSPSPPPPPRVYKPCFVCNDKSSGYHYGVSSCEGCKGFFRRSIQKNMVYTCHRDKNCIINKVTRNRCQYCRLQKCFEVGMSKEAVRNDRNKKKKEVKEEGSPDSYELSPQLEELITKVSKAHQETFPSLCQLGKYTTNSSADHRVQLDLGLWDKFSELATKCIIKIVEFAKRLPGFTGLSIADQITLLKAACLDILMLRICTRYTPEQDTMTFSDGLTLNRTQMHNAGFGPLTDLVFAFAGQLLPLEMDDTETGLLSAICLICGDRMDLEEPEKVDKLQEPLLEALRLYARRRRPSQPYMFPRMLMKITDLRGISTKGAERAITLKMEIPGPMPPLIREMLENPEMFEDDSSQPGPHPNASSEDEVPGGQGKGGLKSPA
UniProt P10276, whole entry, species assumed: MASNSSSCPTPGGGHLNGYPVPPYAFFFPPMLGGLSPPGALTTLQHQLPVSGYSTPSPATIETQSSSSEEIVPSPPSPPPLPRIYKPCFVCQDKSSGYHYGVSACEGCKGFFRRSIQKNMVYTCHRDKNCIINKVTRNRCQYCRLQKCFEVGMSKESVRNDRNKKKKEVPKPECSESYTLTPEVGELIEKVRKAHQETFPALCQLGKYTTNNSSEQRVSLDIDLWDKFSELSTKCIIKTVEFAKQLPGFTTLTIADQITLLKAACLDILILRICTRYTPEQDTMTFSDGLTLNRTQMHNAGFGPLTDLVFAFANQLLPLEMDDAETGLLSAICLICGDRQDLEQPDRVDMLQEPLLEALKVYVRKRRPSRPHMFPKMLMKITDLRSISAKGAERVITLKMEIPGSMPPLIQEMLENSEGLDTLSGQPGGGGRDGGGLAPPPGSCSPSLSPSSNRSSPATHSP

According to patent US7259188B2, “Methods and pharmaceutical compositions for treatment of anti-estrogen resistant breast cancer using RXR modulators” (priority 1998, dated 2007):

Tests used:
[1] = molecular target: RARβ (Homo sapiens, UniProt P10826); conditions: co-transfection assay
[2] = molecular target: RARγ (Homo sapiens, UniProt P13631); conditions: co-transfection assay
[3] = molecular target: RARα (Homo sapiens, UniProt P10276); conditions: co-transfection assay
[4] = molecular target: T1, RXRγ (UniProt P28705); conditions: co-transfection assay
T1 sequence (P28705 1-463): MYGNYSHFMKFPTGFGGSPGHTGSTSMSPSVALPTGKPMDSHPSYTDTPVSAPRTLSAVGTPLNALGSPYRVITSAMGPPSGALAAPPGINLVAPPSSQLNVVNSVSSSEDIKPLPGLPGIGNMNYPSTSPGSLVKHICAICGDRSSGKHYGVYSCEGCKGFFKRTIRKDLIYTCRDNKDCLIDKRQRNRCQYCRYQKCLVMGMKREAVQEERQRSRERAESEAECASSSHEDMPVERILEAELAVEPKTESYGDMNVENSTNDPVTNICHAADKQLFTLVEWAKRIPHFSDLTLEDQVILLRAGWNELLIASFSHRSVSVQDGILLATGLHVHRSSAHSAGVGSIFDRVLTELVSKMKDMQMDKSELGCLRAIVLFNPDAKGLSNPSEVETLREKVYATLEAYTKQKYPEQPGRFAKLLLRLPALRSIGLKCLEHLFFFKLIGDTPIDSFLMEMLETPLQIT

[5] = molecular target: T2, RXRβ (UniProt P28704); assay type: cell-based
T2 sequence (P28704 1-520): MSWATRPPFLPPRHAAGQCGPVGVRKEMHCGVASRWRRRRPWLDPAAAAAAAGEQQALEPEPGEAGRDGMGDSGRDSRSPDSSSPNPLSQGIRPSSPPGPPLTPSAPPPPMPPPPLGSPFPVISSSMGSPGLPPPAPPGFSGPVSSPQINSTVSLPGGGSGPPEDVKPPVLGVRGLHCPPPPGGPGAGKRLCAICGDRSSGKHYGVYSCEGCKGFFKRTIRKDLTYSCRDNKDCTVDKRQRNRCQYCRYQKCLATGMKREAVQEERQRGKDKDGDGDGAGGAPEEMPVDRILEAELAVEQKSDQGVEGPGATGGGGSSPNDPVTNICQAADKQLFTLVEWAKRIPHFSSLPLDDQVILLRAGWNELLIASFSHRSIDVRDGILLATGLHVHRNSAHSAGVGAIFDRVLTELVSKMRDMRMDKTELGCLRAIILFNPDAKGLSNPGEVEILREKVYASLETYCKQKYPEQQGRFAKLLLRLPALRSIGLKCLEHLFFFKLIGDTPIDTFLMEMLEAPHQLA

What does the source list for `CC1=C(/C=C/C(C)=C\C=C\C(C)=C\C(=O)O)C(C)(C)CCC1` [9-cis-retinoic acid]?
Efficacy [1]: 82%; Efficacy [2]: 120%; Efficacy [3]: 100%; Efficacy [4]: 140%

How did the Efficacy [5] turn out when `C=C(c1ccc(C(=O)O)cc1)c1cc2c(cc1C)C(C)(C)CCC2(C)C` [LGD1069] was run?
Its Efficacy is 102%.
